Legend:
[1] = target: bovine eNOS (Bos taurus (Bovine), UniProt P29473); experiment: NOS inhibition assay, eNOS; format: biochemical; settings: Table 2; for Ki: bovine eNOS, Km […], Ki = IC50/(1 + [S]/KM)
[2] = target: murine iNOS (Mus musculus (Mouse), UniProt P29477); experiment: NOS inhibition assay, iNOS; format: biochemical; settings: Table 2; for Ki: murine iNOS, Km […], Ki = IC50/(1 + [S]/KM)

Row | SMILES | Ki [1] | Ki [2] | Selectivity n/e ([1]; ratio of Ki (eNOS) to Ki (nNOS)) | Selectivity n/i ([2]; ratio of Ki (iNOS) to Ki (nNOS))
1 | N=C(Nc1cccc(COC[C@H]2C[C@@H](OCc3cccc(NC(=N)c4cccs4)c3)CN2)c1)c1cccs1 [QJ-II-187] | 3630 nM | 1990 nM |  | 
2 | N=C(Nc1cccc(COC[C@@H]2C[C@@H](OCc3cccc(NC(=N)c4cccs4)c3)CN2)c1)c1cccs1 [QJ-II-194] | 2470 nM | 1110 nM |  | 
3 | N=C(Nc1cccc(COC[C@@H]2C[C@H](OCc3cccc(NC(=N)c4cccs4)c3)CN2)c1)c1cccs1 [QJ-II-195] | 1450 nM | 2110 nM |  | 
4 | N=C(Nc1cccc(OC[C@@H]2C[C@@H](Oc3cccc(NC(=N)c4cccs4)c3)CN2)c1)c1cccs1 [QJ-III-08] |  |  | 119 | 86
